For one compound, LC50 results are on record in ChEMBL document CHEMBL1155284, “Synthesis and antibacterial activity of some new thiadiaza/triazaphospholes, thiadiaza/triaza/tetrazaphosphinines and thiadiaza/tetrazaphosphepines containing 1,2,4-triazinone moiety” (Eur J Med Chem, 2009).

In this data set the test system is Artemia salina. Nature of the data set: Toxicity against Artemia salina larvae after 24 hrs. To be noted: in vivo. It is filed as organism-based. Put shortly: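 Brine shrimp lethality test. Artemia salina eggs were hatched 48 h at 37 °C in filtered sea salt solution (38 g/L) with constant oxygen to give nauplii. Stock was 10 mg compound in 2 mL DMSO, diluted to 80, 40, 20, 10 and 5 µg/mL in triplicate vials, about 10 nauplii each, with a DMSO control. LC50 is the mean of three values.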

Each structure is given as a SMILES string. In brackets after ≈: the same amount, converted by molar mass.

`CCOP1(=O)Nc2nnc(C)c(=O)n2NC1C` (stereo unspecified) returned an LC50 of 32.3 µg/mL (≈ 125 µM).
